Measurements from patent US8030448.

Molecular target: (Pro-Hyp-Gly)8-amide
Assay: ultrafiltration at 4 C with Microcon YM-100, filtrate by HPLC; control triple helix

percent of peptides passing the ultrafiltration membrane (cut-off 100,000 MW): 56%
Substance: (Pro-Hyp-Gly)8-amide (peptide)
